How the values were obtained:
MAGE-11 mRNA [1] = assay: MAGE-11 mRNA by real-time PCR in ECC-1 cells; assay type: cell-based, human; conditions: 100 Units/ml hCG, 10 nM progesterone, 10 nM DHT or 10 ng/ml EGF
MAGE-11 mRNA [2] = assay: MAGE-11 mRNA by real-time PCR in Ishikawa cells; assay type: cell-based, human; conditions: 100 Units/ml hCG, 10 nM progesterone, 10 nM DHT or 10 ng/ml EGF

## hCG: human chorionic gonadotropin (Sigma)
MAGE-11 mRNA [1]
  change in MAGE-11 mRNA levels: unchanged
MAGE-11 mRNA [2]
  change in MAGE-11 mRNA levels: unchanged

Reference: patent US20100150930A1, “MAGE-11 AS A MARKER FOR ENDOMETRIAL RECEPTIVITY TO EMBRYO TRANSPLANTATION AND A MARKER AND THERAPEUTIC TARGET IN CASTRATION-RECURRENT PROSTATE CANCER” (The University of North Carolina at Chapel Hill, priority 2007, published 2010)
